Test: Stability study: histidine challenge, radiochemical composition by HPLC on RP18 column
Type: physicochemical
Settings: 20 mg of histidine, stirred 1 hour at 50° C.
Method: The complexes are stable, so that at room temperature, no exchange of chelating agents for histidine is carried out. The. chelates and tricarbonyl-Tc-99m and Re-tricarbonyl complexes that are described in this invention are thus clearly better suited for diagnostic and therapeutic purposes than the previously known systems. A special advantage of the compounds according to the invention consists in the fact that their syntheses can be directed without using sulfur protective groups. This makes their synthesis very simple, and in addition, such compounds that are described according to the invention in particular offer the advantage that after radiochemical labeling, no further foreign molecules are contained in the solutions that are to be administered intravenously for radiodiagnosis or radiotherapy. Such foreign molecules frequently disrupt the biodistribution of the radiopharmaceutical agent and can adversely affect the diagnostic information content of the SPECT imaging. In addition, the labelings on such ligands or their coupling products can be performed on substances that accumulate selectively on diseased tissues under very mild conditions. […]

Substance: Tc-99m-Tricarbonyl Complex of N,N-bis-(2-methylthioethyl)-glycine-N′-propylamide [Example 9b]
- radiochemical composition (HPLC chromatogram) after histidine challenge: unchanged
